The test system of this data set is HK-2 cells. The note with it: P<0.0001 VRP-034 versus marketed PMB.

Read-outs that look alike come from different tables or passages of the source.

On to Polymyxin B [marketed PMB], for which the “IC50, cytotoxicity” value by setting is: (24h) 90.4 µg/mL; (48 h) 48.5 µg/mL.

Source of the values: paper PMC12674763 (JAC-Antimicrobial Resistance, 2025).
